Target: Cytochrome P450 1A (Homo sapiens, UniProt P04798+P05177)
Test: Inhibition of CYP1A1/2-mediated metabolite formation in rat liver microsomes assessed as reduction in N-(1-((2R,4R,5R)-3,3-difluoro-4-hydroxy-5-(hydroxymethyl)tetrahydrofuran-2-yl)-2-oxo-1,2-dihydropyrimidin-4-yl)pentadecanamide metabolism; call rule not given here
Assay type: ADME, Microsome

Chains of the proteins cited; added tags and fusions are not shown. Lines headed by an entry give the natural chain unless they say otherwise; changes in a name come on top.
UniProt P04798: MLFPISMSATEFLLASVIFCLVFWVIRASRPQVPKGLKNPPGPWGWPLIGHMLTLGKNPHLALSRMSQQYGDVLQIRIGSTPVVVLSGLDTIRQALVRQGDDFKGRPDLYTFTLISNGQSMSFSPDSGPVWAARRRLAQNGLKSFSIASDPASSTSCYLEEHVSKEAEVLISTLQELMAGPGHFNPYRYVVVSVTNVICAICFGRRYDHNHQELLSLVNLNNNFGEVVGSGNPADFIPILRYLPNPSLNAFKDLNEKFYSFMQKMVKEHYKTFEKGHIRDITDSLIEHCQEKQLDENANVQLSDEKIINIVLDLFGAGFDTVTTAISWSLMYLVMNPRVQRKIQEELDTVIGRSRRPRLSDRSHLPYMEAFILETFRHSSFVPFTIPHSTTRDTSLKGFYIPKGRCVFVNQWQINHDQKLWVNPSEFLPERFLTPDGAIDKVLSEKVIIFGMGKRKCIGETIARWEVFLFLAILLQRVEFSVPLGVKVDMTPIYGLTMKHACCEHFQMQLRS
UniProt P05177: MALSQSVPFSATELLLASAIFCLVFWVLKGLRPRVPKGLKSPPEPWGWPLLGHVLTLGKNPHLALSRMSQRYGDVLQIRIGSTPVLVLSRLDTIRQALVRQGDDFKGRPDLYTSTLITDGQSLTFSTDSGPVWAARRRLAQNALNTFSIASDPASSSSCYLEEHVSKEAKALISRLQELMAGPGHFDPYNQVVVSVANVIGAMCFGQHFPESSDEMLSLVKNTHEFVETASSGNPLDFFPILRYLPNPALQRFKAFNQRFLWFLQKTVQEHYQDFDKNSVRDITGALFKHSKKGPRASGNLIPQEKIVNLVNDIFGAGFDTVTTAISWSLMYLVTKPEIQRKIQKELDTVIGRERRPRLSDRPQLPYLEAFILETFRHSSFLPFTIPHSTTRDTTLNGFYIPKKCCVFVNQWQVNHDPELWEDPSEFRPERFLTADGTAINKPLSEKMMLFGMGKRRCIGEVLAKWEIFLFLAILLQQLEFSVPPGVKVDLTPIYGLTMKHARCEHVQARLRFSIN

O=c1cc(-c2ccccc2)oc2c1ccc1ccccc12 [ALPHA-NAPHTHOFLAVONE]
inhibition (INH): Active
